Reference: patent US10329283B2, “G protein-coupled receptor kinase inhibitors and methods for use of the same” (THE REGENTS OF THE UNIVERSITY OF MICHIGAN, priority 2015, dated 2019)

The chains behind the UniProt entries cited, without tags or fusion partners.
UniProt P34947, whole entry, species assumed: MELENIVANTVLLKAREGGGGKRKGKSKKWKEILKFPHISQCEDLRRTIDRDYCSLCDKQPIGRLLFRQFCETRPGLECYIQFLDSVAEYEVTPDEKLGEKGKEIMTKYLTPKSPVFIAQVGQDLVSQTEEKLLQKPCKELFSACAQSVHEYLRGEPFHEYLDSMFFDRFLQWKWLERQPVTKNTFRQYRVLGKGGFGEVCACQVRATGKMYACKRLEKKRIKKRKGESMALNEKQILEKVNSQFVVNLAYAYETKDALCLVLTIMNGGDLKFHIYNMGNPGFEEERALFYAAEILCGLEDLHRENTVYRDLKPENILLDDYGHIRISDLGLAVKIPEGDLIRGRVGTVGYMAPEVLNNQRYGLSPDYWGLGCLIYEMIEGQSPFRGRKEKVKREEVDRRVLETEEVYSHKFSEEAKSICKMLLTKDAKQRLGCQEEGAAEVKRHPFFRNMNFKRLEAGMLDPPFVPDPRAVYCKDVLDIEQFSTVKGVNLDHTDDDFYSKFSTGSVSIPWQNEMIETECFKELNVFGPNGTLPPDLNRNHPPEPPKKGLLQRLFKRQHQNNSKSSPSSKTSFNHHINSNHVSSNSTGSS

Target: GRK5 (Homo sapiens, UniProt P34947)
Assay: GRK5 kinetic assay for inhibition of GRKs (phosphorimaging)
Assay type: biochemical
Conditions: 50 nM GRK, 5 μM ATP, 500 nM bROS or tubulin, 5 min
Procedure: The low salt concentration and DDM were used to maximize GRK activity and disrupt small molecule aggregates from forming, respectively. […] Data was analyzed and inhibition curves were fit via GraphPad Prism.

IC50: > 100 µM
SMILES: Fc1ccc([C@@H]2CCNC[C@H]2COc2ccc3c(c2)OCO3)cc1 [Paroxetine, reference compound]
